Read-outs that look alike come from different tables or passages of the source.

The chains behind the UniProt entries cited, without tags or fusion partners.
UniProt O43614, whole entry: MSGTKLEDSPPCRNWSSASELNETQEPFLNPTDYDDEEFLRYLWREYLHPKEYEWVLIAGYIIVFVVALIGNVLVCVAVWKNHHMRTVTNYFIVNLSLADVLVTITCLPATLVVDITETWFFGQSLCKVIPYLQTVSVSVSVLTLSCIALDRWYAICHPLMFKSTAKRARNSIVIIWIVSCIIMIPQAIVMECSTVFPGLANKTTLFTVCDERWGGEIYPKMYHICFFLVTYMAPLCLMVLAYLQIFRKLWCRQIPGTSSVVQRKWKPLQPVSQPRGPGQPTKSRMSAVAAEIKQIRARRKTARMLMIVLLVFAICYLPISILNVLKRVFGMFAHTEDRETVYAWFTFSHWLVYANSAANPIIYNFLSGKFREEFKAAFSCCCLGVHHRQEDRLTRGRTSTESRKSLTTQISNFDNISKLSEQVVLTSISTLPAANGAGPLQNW

One experiment deals with rat orexin 1 receptor (Rattus norvegicus, UniProt P56718). In words: Rat orexin 1 receptor radioligand binding. The procedure:
(§1) Rat and Human Orexin 1 Receptor Radioligand Binding Studies
(§2) After centrifugation (2K×G, 5 min at 4° C.), the supernatant was aspirated and the pellets frozen and stored at −80° C. […] Each cell pellet from a 15 cm plate was resuspended in 10 mL, stored on ice, and homogenized for 45 sec prior to addition to the reactions. […] The final concentration of DMSO in the reactions is equal to or less than 0.1%. Total and nonspecific binding was determined in the absence and presence of 10 μM almorexant. The total volume of each reaction is 200 μL (20 μL of diluted compounds, 80 μL of [^3H]-(1-(5-(2-fluoro-phenyl)-2-methyl-thiazol-4-yl)-1-((S)-2-(5-phenyl-(1,3,4)oxadiazol-2-ylmethyl)-pyrrolidin-1-yl)-methanone) diluted in PBS and 100 μL of the cell suspension). […] The plates were washed 3 times by aspirating 30 ml PBS through the plates. Plates were dried in 55° C. oven for 60 min, scintillation fluid was added, and the radioactivity was counted on a Topcount (Packard).

Another experiment addresses human orexin 1 receptor (Homo sapiens, UniProt O43613). Description: Human orexin 1 receptor radioligand binding. As to conditions: CHO cells stably expressing human orexin 1 receptor; competitive radioligand binding, apparent Ki; read-out: hOX1 Ki. The procedure: as §1, §2
For a further experiment, the target named is human orexin 2 receptor (Homo sapiens (Human), UniProt O43614). In words: Human orexin 2 receptor radioligand binding. As to conditions: HEK293 stably expressing human orexin 2 receptor; [3H]-EMPA competitive binding, apparent Ki; read-out: hOX2 Ki. The procedure:
Human Orexin 2 Receptor Radioligand Binding Studies
as §2, with “sec just” for “sec”, “reactions. Competition binding experiments in 96 well polypropylene plates were performed using [^3H]-EMPA (Moraveck Corporation, specific activity=29.6 Ci/mmol), diluted to a 5 nM concentration in PBS (2 nM final concentration).” for “reactions.”, “[^3H]-EMPA” for “[^3H]-(1-(5-(2-fluoro-phenyl)-2-methyl-thiazol-4-yl)-1-((S)-2-(5-phenyl-(1,3,4)oxadiazol-2-ylmethyl)-pyrrolidin-1-yl)-methanone)”

Where [1] appears, read: HEK293 cells stably expressing rat orexin 1 receptor, competitive radioligand binding, apparent Ki, read-out: rOX1 Ki.

On to `O=C(c1cc(F)ccc1-n1nccn1)N1CC2CC(Oc3ccc(C(F)(F)F)cn3)C1C2` (racemic) [Example 14, (R/S)-(5-fluoro-2-(2H-1,2,3-triazol-2-yl)phenyl)(6-((5-(trifluoromethyl)pyridin-2-yl)oxy)-2-azabicyclo[2.2.1]heptan-2-yl)methanone], for which the Ki at rat orexin 1 receptor (setting [1]) was 0.016 µM.

As for `Cc1cccc(C(=O)N2CC3CC(Oc4ccc(C(F)(F)F)cn4)C2C3)c1-n1nccn1` (racemic) [Example 17, (R/S)-(3-methyl-2-(2H-1,2,3-triazol-2-yl)phenyl)(6-((5-(trifluoromethyl)pyridin-2-yl)oxy)-2-azabicyclo[2.2.1]heptan-2-yl)methanone], the Ki on rat orexin 1 receptor turned out to be 0.008 µM; on human orexin 1 receptor, 0.003 µM.

Turning to `Cc1ccc(-n2nccn2)c(C(=O)N2CC3CC(Oc4ccc(C(F)(F)F)cn4)C2C3)n1` (single isomer, unassigned) [Example 24], the Ki on human orexin 1 receptor came to 0.016 µM.

On to `Cc1ccc(-n2nccn2)c(C(=O)N2CC3CC(Oc4ccc(C(F)(F)F)cn4)C2C3)n1` [Example 25, (6-methyl-3-(2H-1,2,3-triazol-2-yl)pyridin-2-yl)((1S,4R,6R)-6-((5-(trifluoromethyl)pyridin-2-yl)oxy)-2-azabicyclo[2.2.1]heptan-2-yl)methanone], for which the Ki on human orexin 1 receptor came out at 0.015 µM.

Turning to `O=C(c1ccc(F)cc1-c1ncccn1)N1C[C@H]2C[C@@H](Oc3ccc(C(F)(F)F)cn3)[C@@H]1C2` [Example 26, (4-fluoro-2-(pyrimidin-2-yl)phenyl)((1S,4R,6R)-6-((5-(trifluoromethyl)pyridin-2-yl)oxy)-2-azabicyclo[2.2.1]heptan-2-yl)methanone], the Ki at rat orexin 1 receptor (setting [1]) came to 0.012 µM.

Take `O=C(c1cccc(F)c1-c1ncccn1)N1C[C@H]2C[C@@H](Oc3ccc(C(F)(F)F)cn3)[C@@H]1C2` [Example 27, (3-fluoro-2-(pyrimidin-2-yl)phenyl)((1S,4R,6R)-6-((5-(trifluoromethyl)pyridin-2-yl)oxy)-2-azabicyclo[2.2.1]heptan-2-yl)methanone]: the results for the Ki on rat orexin 1 receptor (setting [1]), at human orexin 1 receptor and on human orexin 2 receptor were 0.004 µM, 0.004 µM and 0.767 µM, respectively.

On to `Cc1cnc(C(=O)N2C[C@H]3C[C@@H](Oc4ccc(C(F)(F)F)cn4)[C@@H]2C3)c(-n2nccn2)c1` [Example 28, (5-methyl-3-(2H-1,2,3-triazol-2-yl)pyridin-2-yl)((1S,4R,6R)-6-((5-(trifluoromethyl)pyridin-2-yl)oxy)-2-azabicyclo[2.2.1]heptan-2-yl)methanone], for which the results for the Ki at rat orexin 1 receptor (setting [1]), at human orexin 1 receptor and on human orexin 2 receptor were 0.032 µM, 0.021 µM and 1.6 µM, respectively.

Regarding `O=C(c1cccc(F)c1-n1nccn1)N1C[C@H]2C[C@@H](Oc3ccc(C(F)(F)F)cn3)[C@@H]1C2` [Example 35, (3-fluoro-2-(2H-1,2,3-triazol-2-yl)phenyl)((1S,4R,6R)-6-((5-(trifluoromethyl)pyridin-2-yl)oxy)-2-azabicyclo[2.2.1]heptan-2-yl)methanone], the Ki at human orexin 1 receptor is 0.003 µM.

Consider `O=C(c1ccccc1-n1nccn1)N1C[C@H]2C[C@@H](Oc3ccc(C(F)(F)F)cn3)[C@@H]1C2` [Example 36, (2-(2H-1,2,3-triazol-2-yl)phenyl)((1S,4R,6R)-6-((5-(trifluoromethyl)pyridin-2-yl)oxy)-2-azabicyclo[2.2.1]heptan-2-yl)methanone], for which the Ki at human orexin 2 receptor was 0.322 µM.

Consider `O=C(c1cc(F)ccc1-n1nccn1)N1C[C@H]2C[C@@H](Oc3ccc(C(F)(F)F)cn3)[C@@H]1C2` [Example 43, (5-fluoro-2-(2H-1,2,3-triazol-2-yl)phenyl)((1S,4R,6R)-6-((5-(trifluoromethyl)pyridin-2-yl)oxy)-2-azabicyclo[2.2.1]heptan-2-yl)methanone], for which the Ki was 0.016 µM on rat orexin 1 receptor (setting [1]) and 0.008 µM at human orexin 1 receptor.

Turning to `O=C(c1c(F)cccc1-n1nccn1)N1C[C@H]2C[C@@H](Oc3ccc(C(F)(F)F)cn3)[C@@H]1C2` [Example 46, (2-fluoro-6-(2H-1,2,3-triazol-2-yl)phenyl)((1S,4R,6R)-6-((5-(trifluoromethyl)pyridin-2-yl)oxy)-2-azabicyclo[2.2.1]heptan-2-yl)methanone], the Ki at human orexin 2 receptor was 0.65 µM.

Values taken from US8969352B2, “Substituted 2-azabicycles and their use as orexin receptor modulators” (Janssen Pharmaceutica NV, priority 2013, dated 2015).
